In patent publication US10077277B2, “Bicyclic heteroarylaminoalkyl phenyl derivatives as PI3K inhibitors” (Incyte Corporation, priority 2014, dated 2018):

Target: human JAK1 (Homo sapiens, UniProt P23458)
Assay: In vitro JAK kinase assay (Example J), JAK1
Assay type: biochemical
Conditions: Assay J at 1 mM ATP

**Q.** `CN(C)Cc1cc(F)cc(OC2CCN(CC(CC#N)n3cc(-c4ncnc5[nH]ccc45)cn3)CC2)c1` (stereo not shown) [Example 14, 4-(4-{3-[(dimethylamino)methyl]-5-fluorophenoxy}piperidin-1-yl)-3-[4-(7H-pyrrolo[2,3-d]pyrimidin-4-yl)-1H-pyrazol-1-yl]butanenitrile] was tested. Which pIC50 did it give?
**A.** > 8.00

pIC50: −log10 of the molar value.
